Literature values in patent US9861096B2, “Biodegradable chemical delivery system” (Cornell University, priority 2008, dated 2018).

Settings: octanol/aqueous pH 7.65; cited from earlier work

CC(C)(C)NC[C@H](O)COc1nsnc1N1CCOCC1 [timolol]
log Kow: 1.91
